According to patent US11865182B2, “Product and process for employing GC7 (N1-guanyl-1,7-diaminoheptane) based antigen binding conjugates in cancer therapy” (priority 2017, dated 2024):

Tested on: bi-lateral subcutaneous tumors derived from 779E cells
Test: in-vivo analysis of ADCs cytotoxic effect in subcutaneous mouse model (loss of GFP fluorescence signal, IVIS imaging)
Conditions: nude mice, 779E subcutaneous tumors, tail vein injection, after 12 days
Protocol: The following is an exemplary protocol and results for in-vivo analysis of ADCs cytotoxic effect in subcutaneous mouse model as illustrated in FIG. 10.
After purification via gel chromatography, where the cytotoxicity effect of the drug on the eIF5A positive tumor cell compared to eIF5A negative cells was determined by measuring the loss of fluorescence signal of the GFP tagged tumor cells after administration of the ADC in vivo via tail vein injection in mice using an IVIS Spectrum in vivo imaging system.

| Substance | tumor growth inhibition [%] |
| --- | --- |
| GC7-Cetuximab-SPDP-DYLIGHT 550 NHS | 84.4 |
| GC7-Cetuximab-EDC-DYLIGHT 550 NHS | −3.7 |
